Measurements: PubChem BioAssay AID651719 (The Scripps Research Institute Molecular Screening Center, 2012)
The entries are a selection whose mix differs from that of the whole data set. The source made the active and inactive calls.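 How the source made its calls: active means inhibition above the screen-wide average plus 3 SD (cut at about 13% in these data); inactive means the rest.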

Sequences of proteins named here, by UniProt entry; tags and fusion partners are left off. Residues count along the entry.
UniProt O60755, 1-299 limits assumed: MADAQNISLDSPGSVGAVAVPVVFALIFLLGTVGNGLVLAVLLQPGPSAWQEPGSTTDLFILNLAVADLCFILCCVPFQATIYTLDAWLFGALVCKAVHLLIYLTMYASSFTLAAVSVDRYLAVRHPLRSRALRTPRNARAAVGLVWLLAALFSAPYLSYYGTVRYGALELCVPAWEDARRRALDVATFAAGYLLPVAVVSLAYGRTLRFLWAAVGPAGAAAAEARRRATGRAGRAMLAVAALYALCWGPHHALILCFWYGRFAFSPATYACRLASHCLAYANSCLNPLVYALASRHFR

What follows are molecules tested against Galanin receptor type 3 (Homo sapiens) (UniProt O60755) (assay: blockers of human galanin receptor 3 – cell-based, fluorescence readout, primary screen (AID 651719;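 further: forskolin and galanin both at EC90 stimulate the cells; cAMP rise reported by CNG channel membrane potential dye signal; 0% = forskolin plus galanin with DMSO and 100% = forskolin alone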)). Conditions: HEK293 GalR3-CNG cAMP membrane potential fluorescence; at 3 µM; stronger effect = higher value; galR3 body fused to GalR1 C-terminus.

Row | SMILES | inhibition
1 | O=[N+]([O-])c1cc([N+](=O)[O-])c(Nc2nnnn2CCO)c([N+](=O)[O-])c1 | inactive: -8.27%
2 | CCOC(=O)C(CC)C1=NC(C)(C)Cc2ccccc21.O=[N+]([O-])c1cc([N+](=O)[O-])c(O)c([N+](=O)[O-])c1 (configuration not stated) | inactive: -2.02%
3 | COc1ccccc1OP(C)(=O)Nc1c(C)cccc1C (configuration not stated) | inactive: 1.59%
4 | CN1CCCCC1COC(=O)C1(O)c2ccccc2CCc2ccccc21 (configuration not stated) | inactive: -6.55%
5 | COc1ccc(-c2ccccn2)cc1.O=[N+]([O-])c1cc([N+](=O)[O-])c(O)c([N+](=O)[O-])c1 | inactive: -7.22%
6 | CP(=O)(Nc1ccc(SC(F)(F)F)cc1)Oc1ccccc1 (configuration not stated) | inactive: -12.5%
7 | CCCOc1ccc(NP(C)(=O)Oc2ccc(Cl)cc2)cc1 (configuration not stated) | inactive: -5.55%
8 | O=[N+]([O-])c1cc([N+](=O)[O-])c(-n2nnc3ccccc32)c([N+](=O)[O-])c1 | inactive: 2.92%
9 | CN(Cc1cccnc1)C(=O)COc1ccc(Cl)c(Cl)c1.O=[N+]([O-])c1cc([N+](=O)[O-])c(O)c([N+](=O)[O-])c1 | inactive: -7.94%
10 | O=[N+]([O-])c1cc([N+](=O)[O-])c(-c2cnn(-c3ccccc3)c2)c([N+](=O)[O-])c1 | inactive: 1.49%
11 | Cc1nc2ccc3ccccc3c2s1.O=[N+]([O-])c1cc([N+](=O)[O-])c(O)c([N+](=O)[O-])c1 | inactive: 1.38%
12 | COc1ccccc1OP(C)(=O)Nc1cccc(Br)c1 (configuration not stated) | inactive: -0.56%
13 | CCOC(=O)c1ccc(NP(C)(=O)Oc2cc(C)cc(C)c2)cc1 (configuration not stated) | inactive: -4.47%
14 | Cc1cc(C)cc(OP(C)(=O)Nc2ccc(C)cc2C)c1 (configuration not stated) | inactive: -1.66%
15 | Cc1ccc(C)c(NP(C)(=O)Oc2ccccc2)c1 (configuration not stated) | inactive: -2.56%
16 | CP(=O)(Nc1cccc(Br)c1)Oc1ccccc1 (configuration not stated) | inactive: -2.98%
17 | Cc1cc(C)cc(OP(C)(=O)Nc2ccccn2)c1 (configuration not stated) | inactive: 0.5%
18 | O=C(O)c1cccc(Nc2c([N+](=O)[O-])cc([N+](=O)[O-])cc2[N+](=O)[O-])c1 | inactive: -5.14%
19 | CC1=NCCc2c1[nH]c1ccccc21.O=[N+]([O-])c1cc([N+](=O)[O-])c(O)c([N+](=O)[O-])c1 | inactive: -7.69%

Row | SMILES | inhibition
20 | O=[N+]([O-])c1cc([N+](=O)[O-])c(Nc2cccnc2)c([N+](=O)[O-])c1 | inactive: -3.1%
21 | O=[N+]([O-])c1ccc2c(c1)C=Nc1ccccc1O2 | inactive: -6.91%
22 | CC(C)(C)c1ccc(OP(C)(=O)Nc2ccc(SC(F)(F)F)cc2)cc1 (configuration not stated) | inactive: -2.7%
23 | Cc1cccc(C)c1OP(C)(N)=O (configuration not stated) | inactive: 0.73%
24 | COc1ccccc1OP(C)(=O)Nc1ccc(C)cc1 (configuration not stated) | inactive: 0.12%
25 | Cc1ccc(NP(C)(=O)Oc2ccccc2)c(C)c1 (configuration not stated) | inactive: -5.19%
26 | CCOC(=O)c1ccc(NP(C)(=O)Oc2ccccc2)cc1 (configuration not stated) | inactive: 1.66%
27 | Cc1cc(C)cc(OP(C)(N)=O)c1 (configuration not stated) | inactive: -5.58%
28 | COc1ccccc1OP(C)(=O)Nc1cc(Cl)ccc1C (configuration not stated) | inactive: 0.13%
29 | COc1ccc(OP(C)(=O)Nc2cccc(F)c2)cc1 (configuration not stated) | inactive: -8.01%
30 | CCN(CC)CCCOC(=O)C(O)(c1ccccc1)c1ccccc1 | active: 20%
31 | COc1ccccc1-c1ccccn1.O=[N+]([O-])c1cc([N+](=O)[O-])c(O)c([N+](=O)[O-])c1 | inactive: -6.2%
32 | Cc1cccc(C)c1OP(C)(=O)Nc1ccc(SC(F)(F)F)cc1 (configuration not stated) | inactive: -3.38%
33 | CP(=O)(Nc1ccc(SC(F)(F)F)cc1)Oc1ccc(Cl)cc1 (configuration not stated) | inactive: -6.8%
34 | CP(=O)(Oc1ccccc1)OC(c1ccccc1)C(F)(F)F (configuration not stated) | inactive: -8.43%
35 | CCc1ccc(OP(C)(=O)N2CCN(c3ccc([N+](=O)[O-])cc3)CC2)cc1 (configuration not stated) | inactive: -5.67%
36 | CP(=O)(NC(=O)Nc1ccccc1)Oc1ccccc1 (configuration not stated) | inactive: -0.79%
37 | Cc1cc(C)cc(OP(C)(=O)Nc2ccc(SC(F)(F)F)cc2)c1 (configuration not stated) | inactive: 0.4%
38 | CCOC(=O)c1ccc(NP(C)(=O)Oc2ccc(OC)cc2)cc1 (configuration not stated) | inactive: 0.73%

Row | SMILES | inhibition
39 | O=[N+]([O-])c1cc([N+](=O)[O-])c(O)c([N+](=O)[O-])c1.c1ccc(Oc2ccncc2)cc1 | inactive: -1.23%
40 | CCOP(C)(=S)SCC(=O)NC(C)C(=O)O (configuration not stated) | inactive: -1.6%
41 | CP(=O)(Nc1ccccn1)Oc1ccc(Cl)cc1 (configuration not stated) | inactive: -3.93%
42 | CP(=S)(Nn1cnnc1)Oc1ccccc1 (configuration not stated) | inactive: -1.93%
43 | CP(=O)(Nc1ccccc1Br)Oc1ccccc1 (configuration not stated) | inactive: 0.71%
44 | COc1ccccc1OP(C)(=O)Nc1ccccc1 (configuration not stated) | inactive: -3.71%
45 | Nc1ccc2c(ccc3cccnc32)n1.O=[N+]([O-])c1cc([N+](=O)[O-])c(O)c([N+](=O)[O-])c1 | inactive: -3.99%
46 | CCOC(=O)c1ccc(NP(C)(=O)Oc2ccc(Cl)cc2)cc1 (configuration not stated) | inactive: -0.57%
47 | CP(=O)(OC12CC3CC(CC(C3)C1)C2)OC12CC3CC(CC(C3)C1)C2 | inactive: -4.64%
48 | CCN(CC)CC(O)COC(=O)C(O)(c1ccccc1)C1CCCCC1 (configuration not stated) | inactive: 1.05%
49 | COc1ccc(OP(C)(=O)Nc2ccc(Br)cc2)cc1 (configuration not stated) | inactive: -9.46%
50 | COc1ccccc1OP(C)(=O)Nc1c(C)n(C)n(-c2ccccc2)c1=O (configuration not stated) | inactive: -1.05%
51 | O=C(OCCCN1CCCC1)C(O)(c1ccccc1)C1CCCCC1 (configuration not stated) | inactive: -7.69%
52 | CP(=O)(Oc1ccccc1)N1CCOC1=O (configuration not stated) | inactive: 0.74%
53 | CCc1ccc(OP(C)(=O)Nc2cccnc2)cc1 (configuration not stated) | inactive: 1.43%
54 | CC(C)(C)c1ccc(OP(C)(=O)O)cc1 | inactive: -3.18%
55 | COc1ccccc1OP(C)(=O)Nc1ccccc1Br (configuration not stated) | inactive: -5.29%
56 | CP(=O)(Nc1ccc(Cl)cc1)Oc1ccc(F)cc1 (configuration not stated) | inactive: -3.63%
57 | CN(C)C(=O)c1c([N+](=O)[O-])cc([N+](=O)[O-])cc1[N+](=O)[O-] | inactive: -3.58%
